Experimental data published in patent US10189803B2, “Synthesis of therapeutic and diagnostic drugs centered on regioselective and stereoselective ring opening of aziridinium ions” (ILLINOIS INSTITUTE OF TECHNOLOGY, priority 2008, dated 2019).

Test: Radiolabeling kinetics of trastuzumab-ligand conjugates with 205/6Bi (SE-HPLC after DTPA challenge)
Type: physicochemical
Conditions: at 24 h (as printed in text)

## C-DOTA-trastuzumab: C-DOTA-NCS (Macrocyclics, TX) conjugated to Herceptin, for comparison
  radiolabeling with 205/6Bi, not complete: 60.2±8.0%
